Measurements from ChEMBL document CHEMBL1154346 (Bioorg Med Chem Lett, 2009).

Chains of the proteins cited; added tags and fusions are not shown.
UniProt P41146, whole entry: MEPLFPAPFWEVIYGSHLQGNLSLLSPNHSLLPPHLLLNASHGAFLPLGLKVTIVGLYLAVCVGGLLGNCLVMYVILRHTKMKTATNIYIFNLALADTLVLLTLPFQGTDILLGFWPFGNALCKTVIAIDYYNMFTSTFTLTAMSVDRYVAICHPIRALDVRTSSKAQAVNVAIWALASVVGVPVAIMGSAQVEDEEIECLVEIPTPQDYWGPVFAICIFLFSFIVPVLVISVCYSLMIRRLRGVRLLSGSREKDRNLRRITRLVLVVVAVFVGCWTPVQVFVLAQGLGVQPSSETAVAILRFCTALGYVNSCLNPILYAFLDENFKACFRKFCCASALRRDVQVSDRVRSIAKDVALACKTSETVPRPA

Molecular target: Nociceptin receptor (Homo sapiens) (UniProt P41146)
Assay: Agonist activity at human NOP receptor expressed in CHO cells assessed as inhibition of forskolin-stimulated cAMP production after 2 hrs relative to nociceptin
Parameters: scale not given: the % may be the effect or the level left

SMILES | Activity [%]
CNC(=O)Cn1c(=O)n(C2CCN([C@H]3CC[C@H](C(C)C)CC3)CC2)c2ccccc21 | 92
CNC(=O)Cn1c(=O)n(C2CCN([C@H]3CC[C@@H](C(C)C)CC3)CC2)c2ccccc21 | 101
CNC(=O)CN1Cc2ccccc2N(C2CCN(C3CCCCCCCCC3)CC2)S1(=O)=O | 93
